Experiments:
Assay type in all cases: cell-based
BXPC-3 cells = test: In vitro cytotoxicity via resazurin assay, comparison with Anti-TPBG comparison ADC2, BXPC-3; conditions: BXPC-3 cells with lower 5T4 expression; 7 days
SW-620 = test: In vitro cytotoxicity via resazurin assay on antigen negative cell line SW-620; conditions: direct treatment
[1] = test system: 5T4-negative cells (SW-620); test: Bystander killing, supernatant transfer; conditions: supernatant from MDA-MB-468 or BXPC-3 after 5 days, SW-620 another 5 days
Description: To analyze bystander activity of ADCs on target-negative cells, 20.000 5T4-positive cells (MDA-MB-468 or BXPC-3) were incubated with increasing concentrations of ADCs (0-3 μg/ml). After 5 days, half of the cell culture supernatant volumes was transferred to 5.000 5T4-negative cells (SW-620) and incubated for another 5 days. Killing was analyzed by a resazurin-based viability measurement as described above.

B1: Anti-TPBG comparison ADC2: Anti-TPBG comparison antibody2 conjugated to MC-VC-SECO-DUBA, DAR estimated 1.7 (conjugate)
heavy: EVQLEESGGGLVKPGGSLRLSCAASGIDLSHYVVGWVRQAPGKGLEWVSIIYGSGRTYYANWAKGRFTISRDNSKNTLYLQMNSLRAEDTAVYYCARDASVSVYYWGYFDLWGRGTLVTVSSASTKGPSVFPLAPSSKSTSGGTAALGCLVKDYFPEPVTVSWNSGALTSGVHTFPAVLQSSGLYSLSSVVTVPSSSLGTQTYICNVNHKPSNTKVDKKV[human IgG1 Fc with changes not spelt out]
light: DIQMTQSPSTLSASVGDRVTITCQASQSIGSELAWYQQKPGKAPKLLIYRASTLESGVPSRFSGSGSGTEFTLTISSLQPDDFATYYCQQGYTYSEIDNAFGQGTKVEIKRTVAAPSVFIFPPSDEQLKSGTASVVCLLNNFYPREAKVQWKVDNALQSGNSQESVTEQDSKDSTYSLSSTLTLSKADYEKHKVYACEVTHQGLSSPVTKSFNRGEC
BXPC-3 cells
  Cytotoxic activity: not active at all
SW-620
  Effect on antigen negative cell line SW-620 without preincubation with antigen positive cells: did not have an effect
[1]
  Bystander activity on target-negative cells after supernatant transfer from target-positive cells: did not exhibit bystander effects at all

From patent publication US20240245798A1, “NOVEL ANTI-TPBG ANTIBODY AND ANTIBODY-DRUG-CONJUGATES BASED THEREON, THERAPEUTIC METHODS AND USES THEREOF” (Tubulis GmbH, priority 2022, published 2024)
